Our source for the SF values is US20230142739A1, “PROTEIN-PROTEIN INTERACTION STABILIZERS” (The Regents of the University of California, priority 2020, published 2023).

The chains behind the UniProt entries cited, without tags or fusion partners. Where a name states a change or a piece, a line headed by the entry shows the natural chain unless it says otherwise.
UniProt P61981: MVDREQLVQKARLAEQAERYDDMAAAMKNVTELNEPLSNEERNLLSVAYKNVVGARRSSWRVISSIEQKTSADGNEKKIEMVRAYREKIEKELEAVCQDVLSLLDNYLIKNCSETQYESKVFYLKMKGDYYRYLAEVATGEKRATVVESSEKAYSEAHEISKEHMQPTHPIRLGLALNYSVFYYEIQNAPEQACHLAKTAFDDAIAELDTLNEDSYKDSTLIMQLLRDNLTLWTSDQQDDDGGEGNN

The target of this assay is p65_45/14-3-3γ (Homo sapiens, UniProt P61981). Briefly: Fluorescence anisotropy protein titration, p65_45 peptide/14-3-3γ in presence of 1 mM fragment. Type of assay: binding. The arrangement: The full length 14-3-3γ was dialysis against 25 mM HEPES pH7.5; made in house; host or cells: E. coli BL21(DE3), pPROEX HTb. Particulars: fold-change of apparent KD in comparison to a DMSO control. The protocol:
SF: the fold-change of apparent KD in comparison to a DMSO control.
During compound titrations, the 14-3-3γ concentration was constant 50 μM and the compound was titrated in a 1:1 dilution series. In protein titrations, 14-3-3γ was titrated in a 1:1 dilution series in the presence of 1 mM compound. The plates (Corning 384 well plates, black, round bottom, low binding) were incubated for 3 h RT prior to fluorescence anisotropy (FA) measurements with the Tecan Infinite 500 plate reader (FITC dye: excitation 485 nm, emission 535 nm). Dilution series were prepared in FA buffer (10 mM HEPES pH 7.4, 150 mM NaCl, 0.1% Tween20). All measurements were performed once.

As to `CC1CN(S(=O)(=O)c2ccc(C=O)cc2)CC(C)O1` (stereo not shown) [23v, 4-[(2,6-dimethylmorpholin-4-yl)sulfonyl]benzaldehyde], the SF worked out at 10.6.
